Yeast mating assay 1: variants of the scFv Ab-14

Reference: Engelhart et al. 2022, doi:10.1038/s41597-022-01779-4. File: FLAb, binding data.

Antigen: PDVDLGDISGINAS, a 14-residue peptide of the SARS-CoV-2 spike HR2 region.

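The parent was found by panning a naive human phage display library on the peptide. AAYL49 was designed without a model: most single CDR substitutions and a random sample of double and triple ones. In AlphaSeq, yeast of one mating type display the scFv and yeast of the other type display the target. The frequency of each diploid, read from paired DNA barcodes, reflects how well the two displayed proteins bind. Each replicate has its own calibration line, from reference interactions of the BCL2 family. Each pool was mated in three replicate cultures.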

Ab-14 is the parent antibody, in scFv form: VH, then the linker GGGGSGGGGSGGGGS, then VL. The light chain is unchanged in all variants.
VH: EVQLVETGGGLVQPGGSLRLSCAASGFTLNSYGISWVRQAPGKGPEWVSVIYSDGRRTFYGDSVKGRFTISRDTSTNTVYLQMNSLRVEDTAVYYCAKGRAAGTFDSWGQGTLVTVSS
VL: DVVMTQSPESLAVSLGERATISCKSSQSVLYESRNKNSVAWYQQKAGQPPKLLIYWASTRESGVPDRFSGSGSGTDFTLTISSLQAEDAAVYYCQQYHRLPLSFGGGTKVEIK

Each variant is given by its three heavy chain CDRs, as the data file delimits them; those of the parent are GFTLNSYGIS, VIYSDGRRTFYGDSVK, GRAAGTFDS. Scale: log10 of Kd in nM, estimated from mating counts; low values are strong binders. An entry "n.d." has no value in the source: the pair was not observed among the diploids in that replicate. This suggests poor binding but is not conclusive.

CDR-H1	CDR-H2	CDR-H3	log10 Kd (nM) by replicate	signal with controls
GFTLNSYGIS	VNYSDGRRTFYNDSVK	GRAAGGFDS	n.d. / n.d. / n.d.	4/9 (5.18)
HFTLTSYGIS	VIYSDGRRTFYGDSVK	GRAKGTFDS	3.00 / 2.28 / 2.86	2/9 (3.76)
GFTLNSYSIS	VIYSDGRRTFTGDSVK	GRALGTFDS	3.90 / 4.54 / n.d.	5/9 (4.05)
GFSLNSYGIW	VIYSDGRRTVYGDSVK	GRAAGTFDS	n.d. / n.d. / n.d.	0/9
NFTLNSYGIS	VIYSDMRRVFYGDSVK	GRAAGTFDS	3.97 / 2.53 / 4.59	1/9 (3.74)
RFTLNSYGIS	VIYSDLRRTFYGDSVK	GRAAGTFDS	n.d. / n.d. / n.d.	0/9
GFTYNSTGIS	VIYSDGRRTFYGDSVK	GRIAGTFDS	5.37 / n.d. / 6.11	4/9 (4.20)
GFTLNSYGIS	VIYSDGKRAIYGDSVK	GRAAGTFDS	2.16 / n.d. / 3.99	0/9
GFTLNSYGIS	VIYSDGRSTFYHDSVK	GRAAGTTDS	n.d. / n.d. / n.d.	1/9 (3.32)
WFTLNSYGIS	VIYHDGRRTFYGDSVK	GRAAGTQDS	n.d. / n.d. / n.d.	0/9
GFTLLSYGIA	VIYSDGRRTFYGDSVK	GRAAGTFES	5.06 / n.d. / 4.97	3/9 (4.45)
GFTLNSDGCS	VIYSDGRRTLYGDSVK	GRAAGTFDS	n.d. / n.d. / n.d.	0/9
GFTLNCYGIS	VIYSDGRRTFYGDSVK	GRAAGTFYS	n.d. / n.d. / n.d.	1/9 (2.96)
GFTLNSYGIS	EIYSIGRRPFYGDSVK	GRAAGTFDS	5.07 / 5.43 / n.d.	2/9 (4.12)
GKTLNSYGIS	VIYSDGRRIFYGDSVK	GRAAGTFDN	n.d. / n.d. / n.d.	2/9 (4.11)
GFTLNSYGIS	VMYSDGRRTFYGDKVK	GRAAGTFDS	1.46 / 1.15 / 1.16	1/9 (4.46)
GFTLRSYGIS	VIYSDGRFTFYGDSVK	GREAGTFDS	n.d. / n.d. / 4.83	1/9 (4.08)
GFTLNSYGIS	VIQSDGRYTFNGDSVK	GRAAGTFDS	n.d. / n.d. / 4.97	4/9 (4.46)
GFTWNSYGIS	VIYSDGRRTFYGHSVK	GRALGTFDS	n.d. / n.d. / n.d.	2/9 (4.26)
GFTLNSYGIS	VIYSPGRRTFYTDSVK	GRMAGTFDS	n.d. / n.d. / n.d.	3/9 (3.92)
GFTLNDYGIS	VIYSCGGRTFYGDSVK	GRAAGTFDS	4.51 / 3.07 / n.d.	2/9 (5.10)
GFTLNSYGIS	VIYSDGGRTFYGDSVK	CRAEGTFDS	4.09 / 2.96 / 4.80	3/9 (4.57)
WWTLNSYGIS	VIYSDGRRTFYGGSVK	GRAAGTFDS	3.11 / 2.40 / 2.02	1/9 (4.28)
GFTLNSYGIS	VIYSDGRRGFIGDMVK	GRAAGTFDS	n.d. / n.d. / n.d.	0/9
GWTLNSYGIS	VIYSDGRRTFYGDSVK	GRAAWTFDS	n.d. / n.d. / n.d.	0/9
GFTLNSYGYS	VIYSDGRRTFYGWSVK	GRAAGTFDS	n.d. / n.d. / n.d.	1/9 (3.16)
GFTLNIYGIS	VIYSDGRRTFYGDSVK	GYAAGTFDS	n.d. / n.d. / n.d.	0/9
GFTLNSYGIS	IIYSDGRRTFYGESVK	GRAAGTFDS	1.43 / 1.78 / 1.66	3/9 (3.90)
GHTRNSYGGS	VIYSDGRRTFYGDSVK	GRAAGTFDS	n.d. / 3.48 / n.d.	1/9 (2.92)
GFQLNSYGIS	VIYSDGRRTFYGDSVT	GRAAGLFDS	2.43 / 2.24 / n.d.	0/9
GFTLVSYGIS	VIYSDGRLTFYGDSVK	GRAAGTFDS	n.d. / n.d. / n.d.	2/9 (4.05)
GFTLNSYEIT	VIYSDGRRTFYGVSVK	GRAAGTFDS	n.d. / n.d. / n.d.	2/9 (2.63)
GFTLNSYGAV	VIYSDGRRTHYGDSVK	GRAAGTFDS	n.d. / n.d. / n.d.	0/9
GFTLNSYGIS	VSYFDGRRTFYGDSVK	GRAAGTFDS	n.d. / n.d. / n.d.	0/9
AFTLNMYGIS	QIYSDGRRTFYGDSVK	GRAAGTFDS	n.d. / n.d. / n.d.	0/9
GFTINSYGIS	VIYSDGRRTFYGTSNK	GRAAGTFDS	4.62 / 4.87 / 4.69	5/9 (4.57)
GFTLNSVGIS	VIYSDGRRTFYCDSVK	GRAAGTFGS	n.d. / n.d. / n.d.	0/9
GFTLNVYGIS	VICSDGRRWFYGDSVK	GRAAGTFDS	5.75 / 5.35 / 4.65	5/9 (3.92)

The first 3 entries again:

CDR-H1	CDR-H2	CDR-H3	log10 Kd (nM) by replicate	signal with controls
GFTLNSYGIS	VNYSDGRRTFYNDSVK	GRAAGGFDS	n.d. / n.d. / n.d.	4/9 (5.18)
HFTLTSYGIS	VIYSDGRRTFYGDSVK	GRAKGTFDS	3.00 / 2.28 / 2.86	2/9 (3.76)
GFTLNSYSIS	VIYSDGRRTFTGDSVK	GRALGTFDS	3.90 / 4.54 / n.d.	5/9 (4.05)

Background: pairings of library AAYL49 with three empty control strains gave a value in 15% of cases (median 4.06, 5th percentile 2.83). Values in that range, when seen in few replicates, are hard to tell from nonspecific mating. The control count says in how many pairings with the empty strains this scFv gave a signal, with their mean in brackets.